This is an account of results in ChEMBL document CHEMBL1255187, “Structure-based design and synthesis of potent, ethylenediamine-based, mammalian farnesyltransferase inhibitors as anticancer agents” (J Med Chem, 2010).

Sequences of proteins named here, by UniProt entry; tags and fusion partners are left off.
UniProt Q8K2I1, whole entry, looked up: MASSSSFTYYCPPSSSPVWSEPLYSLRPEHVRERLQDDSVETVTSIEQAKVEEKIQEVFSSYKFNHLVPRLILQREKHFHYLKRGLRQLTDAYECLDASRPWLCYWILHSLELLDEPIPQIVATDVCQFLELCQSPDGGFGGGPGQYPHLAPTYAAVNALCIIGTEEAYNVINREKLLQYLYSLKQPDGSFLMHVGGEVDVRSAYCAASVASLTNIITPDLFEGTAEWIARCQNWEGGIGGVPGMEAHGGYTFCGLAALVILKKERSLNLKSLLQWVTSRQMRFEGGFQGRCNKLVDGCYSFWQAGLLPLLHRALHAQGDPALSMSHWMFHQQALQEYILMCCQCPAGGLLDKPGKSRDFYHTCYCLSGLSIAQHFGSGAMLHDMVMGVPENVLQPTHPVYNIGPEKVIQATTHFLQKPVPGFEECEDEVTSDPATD

By IC50 is commonly meant the concentration that inhibits the measured activity by half.

Test [1] concerns the target Protein farnesyltransferase (Mus musculus, UniProt Q61239+Q8K2I1). As to the kind of experiment: Inhibition of H-Ras farnesylation expressed in mouse NIH3T3 cells. In kind it is functional, cell-based. A digest of the protocol: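 Oncogenic H-Ras-transformed NIH3T3 cells were treated with a range of inhibitor concentrations. […] Detection used peroxidase-conjugated secondary antibodies and enhanced chemiluminescence. IC50 is the mean of three independent assays ± SD unless stated otherwise.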

Another test is filed under the species Homo sapiens. Nature of the test: Selectivity ratio of IC50 for human geranylgeranyltransferase-1 to IC50 for human farnesyltransferase.

Turning to `CN(C)c1cccc2c(S(=O)(=O)N(CCN(Cc3cncn3C)c3ccc(C#N)cc3)Cc3ccccc3)cccc12`, the IC50 in test [1] came out at 1.5 µM.
Take `Cc1ccc(CN(CCN(Cc2cncn2C)c2ccc(C#N)cc2)S(=O)(=O)c2cn(C)cn2)cc1`: in the test listed under Homo sapiens, the Selectivity ratio stood at 1.6.
